Experimental logP (octanol/water) values from OPERA 2.9

From the experimental data distributed with OPERA 2.9.

logP is the log10 of the octanol-water partition coefficient; higher is more lipophilic. Cells with "n/a" have no entry in this list. "via" names the databases from which the curators took the value.

logP (octanol/water)	compound	name	via
1.78	O=c1c2ccccc2c(=O)c2c1ccc1[nH]c3c(ccc4c(=O)c5ccccc5c(=O)c43)[nH]c12	Vat Blue 4	eChemPortal
1.39	Nc1ccc(Br)cn1	2-Amino-5-bromopyridine	OCHEM
1.52	OC(=NCCN1CCN2Cc3[nH]c4ccccc4c3CC2C1)c1ccccc1 (stereo not given)	n/a	OCHEM
-2.6	CC(=O)N[C@@H](CC(N)=O)C(=O)O	N2-Acetyl-L-asparagine	OCHEM
2.06	O=[N+]([O-])c1ccc2cn[nH]c2c1	1H-Indazole, 6-nitro-	OCHEM
5.43	Cc1c(Br)c(Br)c(Br)c(Br)c1Br	Pentabromotoluene	OCHEM
2.3	CC1=CC(=O)[C@@H]2[C@H](C1)C2(C)C	(1R,6S)-4,7,7-Trimethylbicyclo[4.1.0]hept-3-en-2-one	eChemPortal
-0.041	Br.CC(=O)NC1CCc2nc(N)sc2C1 (stereo not given)	n/a	eChemPortal
-1.68	N=C(O)c1c(Cl)c(Cl)c(Cl)c(Cl)c1C(=O)O	n/a	OCHEM
2.38	CCOc1ccc(N)c([N+](=O)[O-])c1	4-Ethoxy-2-nitroaniline	OCHEM
4.46	Cc1cccc(Oc2ccccc2)c1	1-Methyl-3-phenoxybenzene	OCHEM
1.1	CNC(=C[N+](=O)[O-])NCCSCc1csc(CN(C)C)n1	Nizatidine	PubChem
-1.838	Cc1cc(C2(c3ccc(/N=N/c4c(S(=O)(=O)[O-])cc5ccc(O)cc5c4O)c(C)c3)CCCCC2)ccc1/N=N/c1c(S(=O)(=O)[O-])cc2ccc(O)cc2c1O.[Na+].[Na+]	n/a	eChemPortal
2.736	C[N+](C)(C)c1ccc2ccc(O)c(/N=N/c3ccc(N)c([N+](=O)[O-])c3)c2c1.[Cl-]	n/a	eChemPortal
3.1	CCC[Si](OCC)(OCC)OCC	Triethoxypropylsilane	eChemPortal
0.8	CC(C#N)(CCC(=O)O)N=NC(C)(C#N)CCC(=O)O (stereo not given)	4,4'-Diazene-1,2-diylbis(4-cyanopentanoic acid)	eChemPortal
-2.03	CSc1nc2c(N)ncnc2n1[C@@H]1OC2OP(=O)(O)OCC2[C@H]1O (stereo partly drawn)	n/a	OCHEM
2.03	Cc1cc(C)c(C#N)c(O)n1	3-Cyano-4,6-dimethyl-2-hydroxypyridine	OCHEM
5.09	CC1CCC(C(C)C)C(OC(=O)c2cccnc2)C1 (stereo not given)	5-Methyl-2-(propan-2-yl)cyclohexyl pyridine-3-carboxylate	eChemPortal
6.17	Clc1ccc(-c2cc(Cl)cc(Cl)c2Cl)cc1	n/a	OCHEM
1.26	C1COC2CC2C1 (stereo not given)	2-Oxabicyclo[4.1.0]heptanato	OCHEM
-0.72	NC(Cc1ccc(O)c(Br)c1)C(=O)O (stereo not given)	3-Bromotyrosine	OCHEM
-0.6	CCN(c1ccccc1)S(=O)(=O)c1ccccc1/N=N/c1c(N)ccc2cc(S(=O)(=O)[O-])cc(O)c12.[Na+]	n/a	eChemPortal
3.4	CCCCCCCCC=CCCCCCCCCN(CCO)CCO	Ethanol, 2,2'-(9-octadecen-1-ylimino)bis-	eChemPortal
-0.49	O=S(=O)(O)Nc1cccnc1	N-3-Pyridinylsulfamic acid	OCHEM
-0.67	O=S(=O)([O-])c1ccc(-c2ccccc2)cc1.[Na+]	Sodium 4-biphenylsulfonate	OCHEM
3.4	CC(CC(=O)c1ccc(-c2ccccc2)cc1)C(=O)O (stereo not given)	4-([1,1'-Biphenyl]-4-yl)-2-methyl-4-oxobutanoic acid	OCHEM
-1.572	O=C([O-])c1[nH]n(-c2ccc(S(=O)(=O)[O-])cc2)c(=O)c1/N=N/c1ccc(S(=O)(=O)[O-])cc1.[Na+].[Na+].[Na+]	C.I. Acid Yellow 23	eChemPortal
-2.795	O=S(=O)([O-])c1ccc([O-])c(/N=N/c2c(S(=O)(=O)[O-])cc3cc(Nc4nc(NCCO)nc(Nc5ccc6c([O-])c(/N=N/c7cc(S(=O)(=O)[O-])ccc7[O-])c(S(=O)(=O)[O-])cc6c5)n4)ccc3c2[O-])c1.[Cu+2].[Cu+2].[Na+].[Na+].[Na+].[Na+]	n/a	eChemPortal
1.72	CC(C)(C)CCN	3,3-Dimethylbutylamine	OCHEM
-0.72	O=c1[nH]c(=O)n([C@@H]2O[C@H](CO)C[C@@H]2F)cc1F	n/a	OCHEM
0.46	COC(C)(C)CC(C)=O	4-Methoxy-4-methyl-2-pentanone	OCHEM, PubChem, eChemPortal
0.07	CCCCCCCCCCCC[N+](C)(C)CC(=O)[O-]	n/a	eChemPortal
0.415	Cc1cc(C)cc(N2C(=O)c3ccc4c5ccc6c7c(ccc(c8ccc(c3c48)C2=O)c75)C(=O)N(c2cc(C)cc(C)c2)C6=O)c1	C.I. Pigment Red 149	eChemPortal
3.85	CC#CCn1c(N2CCC[C@@H](N3C(=O)c4ccccc4C3=O)C2)nc2c1c(=O)n(Cc1nc(C)c3ccccc3n1)c(=O)n2C	n/a	eChemPortal
1.141	CCN(CC)c1ccc2cc(C3(S(=O)(=O)[O-])Nc4cc(S(N)(=O)=O)ccc4O3)c(=O)oc2c1.[Na+] (stereo not given)	n/a	eChemPortal
2.07	Cc1cc(N)c([N+](=O)[O-])cc1C	4,5-Dimethyl-2-nitroaniline	OCHEM
3.43	C1=CC(=C(c2ccccc2)c2ccccc2)C=C1	6,6'-Diphenylfulvene	eChemPortal
4.16	O=C1c2ccccc2C(=O)c2c(O)ccc(O)c21	n/a	eChemPortal
-3.1	O=C([O-])C1=NN(c2ccc(S(=O)(=O)[O-])cc2)C(=O)\C1=C/C=C/C=C/c1c(C(=O)O)nn(-c2ccc(S(=O)(=O)O)cc2)c1O.[K+].[K+]	n/a	eChemPortal
-1.1	CC(CO)(CO)C(=O)O	3-Hydroxy-2-(hydroxymethyl)-2-methylpropanoic acid	eChemPortal
-5.9	C=CS(=O)(=O)CCOCCNc1nc(F)nc(Nc2ccc(/N=N/c3ccc(/N=N/c4cc(S(=O)(=O)[O-])c5cc(S(=O)(=O)[O-])cc(S(=O)(=O)[O-])c5c4)cc3)cc2)n1.[Na+].[Na+].[Na+]	n/a	eChemPortal

The 2 lowest values of logP (octanol/water) among the entries above:

{"smiles": "C=CS(=O)(=O)CCOCCNc1nc(F)nc(Nc2ccc(/N=N/c3ccc(/N=N/c4cc(S(=O)(=O)[O-])c5cc(S(=O)(=O)[O-])cc(S(=O)(=O)[O-])c5c4)cc3)cc2)n1.[Na+].[Na+].[Na+]", "logP (octanol/water)": "-5.9", "via": "eChemPortal"}
{"smiles": "O=C([O-])C1=NN(c2ccc(S(=O)(=O)[O-])cc2)C(=O)\\C1=C/C=C/C=C/c1c(C(=O)O)nn(-c2ccc(S(=O)(=O)O)cc2)c1O.[K+].[K+]", "logP (octanol/water)": "-3.1", "via": "eChemPortal"}

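These are experimental values that the OPERA curators gathered from public databases to train and test their QSAR models. A listed value is a point estimate from one report or more. Method and conditions are not stated for these values. Where a salt, mixture or single isomer is drawn, the source does not say that exactly this form was tested. Unmarked limits or estimates from the upstream databases cannot be ruled out.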